Laboratory results: BindingDB's records for 22206546

Chains of the proteins cited; added tags and fusions are not shown. Residues count along the entry.
UniProt P06276, 29-602 limits assumed: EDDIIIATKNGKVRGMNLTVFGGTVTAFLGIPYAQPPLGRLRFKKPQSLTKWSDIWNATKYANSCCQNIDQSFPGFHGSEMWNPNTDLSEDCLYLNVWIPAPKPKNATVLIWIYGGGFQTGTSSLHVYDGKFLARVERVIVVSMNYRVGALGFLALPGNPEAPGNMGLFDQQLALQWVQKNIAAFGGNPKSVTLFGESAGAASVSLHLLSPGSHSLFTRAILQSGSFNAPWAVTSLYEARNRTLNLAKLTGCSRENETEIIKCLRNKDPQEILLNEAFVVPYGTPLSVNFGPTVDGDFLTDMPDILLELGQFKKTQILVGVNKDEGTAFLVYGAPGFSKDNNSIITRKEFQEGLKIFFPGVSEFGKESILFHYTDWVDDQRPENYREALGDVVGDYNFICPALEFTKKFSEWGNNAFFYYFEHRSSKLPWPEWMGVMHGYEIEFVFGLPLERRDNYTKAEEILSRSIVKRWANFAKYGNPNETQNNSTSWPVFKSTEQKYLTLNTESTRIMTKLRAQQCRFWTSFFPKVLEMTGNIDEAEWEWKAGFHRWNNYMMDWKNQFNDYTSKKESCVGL
UniProt P22303, 32-614 limits assumed: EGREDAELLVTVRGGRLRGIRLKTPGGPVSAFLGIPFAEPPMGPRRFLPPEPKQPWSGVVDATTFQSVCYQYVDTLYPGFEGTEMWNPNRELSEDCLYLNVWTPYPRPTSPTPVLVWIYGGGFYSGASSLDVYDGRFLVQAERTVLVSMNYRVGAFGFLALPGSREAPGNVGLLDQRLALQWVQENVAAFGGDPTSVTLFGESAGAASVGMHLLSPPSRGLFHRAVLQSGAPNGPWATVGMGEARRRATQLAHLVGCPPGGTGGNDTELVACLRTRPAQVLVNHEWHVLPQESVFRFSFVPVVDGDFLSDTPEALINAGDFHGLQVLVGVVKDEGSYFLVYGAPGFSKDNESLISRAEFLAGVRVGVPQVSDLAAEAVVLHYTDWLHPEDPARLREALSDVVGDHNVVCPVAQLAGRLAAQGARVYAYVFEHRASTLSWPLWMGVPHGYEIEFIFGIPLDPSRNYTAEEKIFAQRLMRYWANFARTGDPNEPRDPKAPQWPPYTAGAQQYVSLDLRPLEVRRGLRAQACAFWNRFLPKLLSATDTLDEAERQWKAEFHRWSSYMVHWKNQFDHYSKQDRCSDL

Key:
Cholinesterase = Cholinesterase (Homo sapiens, UniProt P06276); experiment: Inhibition of human recombinant BChE using butyrylthiocholine as substrate after 20 mins by Ellman method
Acetylcholinesterase = Acetylcholinesterase (Homo sapiens, UniProt P22303); experiment: Inhibition of human recombinant AChE using acetylthiocholine as substrate after 1 hr by Ellman method

Row | SMILES | IC50 (Cholinesterase) | IC50 (Acetylcholinesterase)
1 | COCCN=C(CN=O)N(C)C | > 200 µM | > 200 µM
2 | CCCCN1CCN=C1CN=O | > 200 µM | > 200 µM
3 | CCCCN1CCCN=C1CN=O | – | 157 µM
4 | CCCCN1CC(C)(C)CN=C1CN=O | 114 µM | –
5 | CCCN=C(CN=O)N(C)C | > 200 µM | > 200 µM
6 | CN(C)C(CN=O)=NCc1ccccc1 | 140 µM | –
7 | CCCCCN=C(CN=O)N(C)C | 180 µM | –
8 | COCCCN=C(CN=O)N(C)C | > 200 µM | > 200 µM
9 | CN(C)C(CN=O)=Nc1ccccc1 | > 200 µM | > 200 µM
10 | CN(C)C(CN=O)=NC1CCC1 | > 200 µM | > 200 µM
11 | CN(C)C(CN=O)=NC1CC1 | > 200 µM | > 200 µM
